# Values of other authors in patent US20050004105A1, “Treatment for a attention-deficit hyperactivity disorder” (priority 2003, published 2005).
# Molecular target: α2 receptor
# Settings: rat cortical membranes, [3H]RX 821002; exemplary protocol; read-out: Ki of reference compound, α2 binding assay; cited from earlier work
smiles,measurement,value
Cc1ccc(N(CC2=NCCN2)c2cccc(O)c2)cc1 [phentolamine mesylate],Ki,~3.2 nM

# Where a name gives a salt, the structure may show the parent alone.
